# AlphaSeq binding of Ab-14 light chain variants to a spike HR2 peptide

From the AlphaSeq antibody data of Engelhart et al. 2022 (doi:10.1038/s41597-022-01779-4), copy in the FLAb collection.

Target peptide (SARS-CoV-2 spike, HR2 region): PDVDLGDISGINAS

The variants keep the heavy chain, the linker and the frameworks of Ab-14 (scFv order VH, a 15-residue (Gly4Ser)3 linker, VL).
VH: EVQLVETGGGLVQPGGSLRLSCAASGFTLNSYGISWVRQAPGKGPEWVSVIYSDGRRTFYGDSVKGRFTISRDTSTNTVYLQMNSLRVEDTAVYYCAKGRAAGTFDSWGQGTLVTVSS
VL: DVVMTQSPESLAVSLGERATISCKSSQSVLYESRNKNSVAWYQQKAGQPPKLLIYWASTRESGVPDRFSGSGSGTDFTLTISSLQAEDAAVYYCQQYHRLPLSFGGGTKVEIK

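The parent was found by panning a naive human phage display library on the peptide. In library AAYL50, one, two or three CDR residues were substituted; doubles and triples were drawn at random. The assay is AlphaSeq: two haploid yeast populations carry antibody and antigen on their surface. After mating in shaken culture at 30 °C for 16 h, diploids were selected and their barcode pairs sequenced. The ratio of observed to expected reads was calibrated, replicate by replicate, on BCL2-family standards whose Kd was known from biolayer interferometry. Mating was done three times.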

Variants are written as CDR1, CDR2 and CDR3 of the light chain (limits as in the source). Parent: KSSQSVLYESRNKNSVA, WASTRES, QQYHRLPLS. Values are log10 of the apparent Kd in nM; lower means stronger binding. The mean shown is taken over the replicates in which the pair was detected. Where no diploid with the target was found in any replicate, the entry reads "not detected": below detection, most likely a poor binder, though not proof of it. For reference, the parent read 0.65 as the reference entry and 1.68 as a member of this library. As a blank, each scFv also met three strains without target: over library AAYL50, 18% of these pairings were detected, typically at 4.19 and seldom below 2.99. The control count says in how many pairings with the empty strains this scFv gave a signal.

CDR-L1,CDR-L2,CDR-L3,mean log10 Kd (nM),replicates with signal,control signals
KSSQGVLYESRNKNSVA,WISTRES,CQYHRLPLS,not detected,0/3,0/9
KSQQSVLYESRNKNSSA,WASTRES,QQYHRLPRS,not detected,0/3,2/9
KSSQSVLYESQNKNSVA,WACTRES,QQYHDLPLS,not detected,0/3,1/9
KSSQSVTYESRNANSVA,WASTRES,QQYHRWPLS,1.29,3/3,4/9
KSSQSVLYESRNKNSVA,WAITRYS,NQYHRLPLS,5.13,1/3,1/9
KSSQSVLYESRNKNSVA,WASMRED,PQYHRLPLS,not detected,0/3,2/9
KSSQSVLYESRNKNSVA,WISTRIS,QQYHRLPLS,2.74,1/3,1/9
KLSQSVLYEGRNKNSVA,WDSTRES,QQYHRLPLS,0.61,3/3,0/9
KSSQSVLYESRNINSVA,WANTRES,QQYHRLILS,not detected,0/3,2/9
KSSQSVLYMSRNKNSVA,WASTREY,QQYHRLPLA,1.67,3/3,1/9
KCSQSVLYESRNKNSVA,WASTREH,QPYHRLPLS,4.42,1/3,2/9
KSSQSVTYESRNKNSVA,WASTRES,QQYHRTPWS,1.14,3/3,4/9
KSSQSVLYESRNENSVA,WASTRFS,QQYHHLPLS,0.54,3/3,1/9
KSSQSVLYEKRNKNSGA,WGSTRES,QQYHRLPLS,not detected,0/3,2/9
KSSQSVLYESRNSNSVA,WASTPES,QIYHRLPLS,4.33,1/3,1/9
KSSQSMLYESRNKNSVA,WASTREI,QQWHRLPLS,4.71,2/3,2/9
KSSNSVLYSSRNKNSVA,WASTRES,QQYKRLPLS,2.44,2/3,1/9
KSSQSVLYESANKNSIA,WASTRES,SQYHRLPLS,0.68,3/3,0/9
KSSQSVDYESRNKNSVA,WGSTREC,QQYHRLPLS,0.51,3/3,0/9
KSSQSVIYESRNKNSVA,WASTRES,QQWHRAPLS,4.43,1/3,2/9
KSSQATLYESRNKNSVA,WASTRES,WQYHRLPLS,4.15,1/3,1/9
KCHQSVLYESRCKNSVA,WASTRES,QQYHRLPLS,0.99,3/3,3/9
KSSQSVLYESRNKNSQA,WASWRES,QQYHRLPLG,3.79,1/3,1/9
KSSQSVLYESDNKNSVA,WWSTAES,QQYHRLPLS,not detected,0/3,3/9
KSSQSVLYESRNKNSDA,WASTRDS,QQYIRLPLS,not detected,0/3,1/9
KSSQSVLYESRNKNSVA,WASWRFS,QQYSRLPLS,not detected,0/3,0/9
KSSQSCAYESRNKNSVK,WASTRES,QQYHRLPLS,4.04,1/3,0/9
KSPQSVLYESRNKNSYA,WASTRQS,QQYHRLPLS,not detected,0/3,1/9
KSSQSVLYESENKNSVA,WASTRES,QEYHRLHLS,1.37,3/3,0/9
KSSQSVLYDSRNKNSVA,WFSTRES,QQYHRLPWS,5.19,1/3,2/9
KSSQSVLYEYRNKNSVA,WASTPES,EQYHRLPLS,not detected,0/3,0/9
KSSQSVLLESRVKNSVA,WASTRES,DQYHRLPLS,not detected,0/3,0/9
KSSRSVLYESRNINSVA,WASTRES,QQYHRLPSS,not detected,0/3,0/9
KSSQSVLYESRNKNYVA,WASTIES,QQYHRLDLS,5.58,1/3,1/9
KSSQSVLYESRNKISVA,WASTREY,QQYPRLPLS,not detected,0/3,0/9
TSSQSVLYESRNKNSVG,MASTRES,QQYHRLPLS,not detected,0/3,2/9
KSSQSKLYDSRNMNSVA,WASTRES,QQYHRLPLS,0.69,3/3,0/9
KSSQSVLYESRNKNSVQ,WASYRES,QQYRRLPLS,not detected,0/3,0/9
KQSQSVLYESRNKNSVA,QASTRES,QQYHRLPLY,0.25,3/3,0/9
KISQSVLYESRNKNSVA,WASKRES,QQYHRLPTS,2.98,3/3,7/9
KSSQSVLYESRNKFRVA,WASTRES,QMYHRLPLS,3.40,2/3,0/9
KSSQSVLYDSRAKNSVA,WASTQES,QQYHRLPLS,3.99,3/3,1/9
KSSQSVLYNSRNANSVA,QASTRES,QQYHRLPLS,-0.26,3/3,8/9
KSSQQVLYESRNKNGVA,WASTRES,QQYNRLPLS,1.41,3/3,3/9
KSSQSVLYESRNINSVA,FASTRES,QQYHRAPLS,not detected,0/3,0/9
KSSQSVLYESRNKASVA,WASTRES,MQYLRLPLS,4.59,1/3,1/9
KSSQSYLYESRNKNSVA,WASTRES,QQFRRLPLS,not detected,0/3,3/9
RSSGSVLYESRNKNSVA,WASTRES,HQYHRLPLS,2.66,3/3,3/9
KSSQSVLYESRNKMSVN,WASTRES,KQYHRLPLS,5.54,2/3,4/9
KSSQIVLYESRNSNSVA,WASRRES,QQYHRLPLS,not detected,0/3,0/9
KSSQSVLYESRDKNGVA,WASTRES,QQYHRKPLS,not detected,0/3,3/9
MSSQSVLYESENKNSVA,WASTRES,QFYHRLPLS,0.54,3/3,1/9
CSSQSVLYGSWNKNSVA,WASTRES,QQYHRLPLS,not detected,0/3,1/9
KSSQSVVYESRNKNQVA,WASTRES,QQYPRLPLS,2.40,3/3,4/9
KSSQSVLYEIRNKASVA,WASARES,QQYHRLPLS,not detected,0/3,0/9
KSSQSVLYESRNKNSPT,WASTREK,QQYHRLPLS,5.18,1/3,3/9
KSSQSVLDESNNKNSVA,WASYRES,QQYHRLPLS,not detected,0/3,1/9
KSSQPVLYESRNCNSVA,WASTRER,QQYHRLPLS,0.68,3/3,2/9
KSFQSVLYESRNKNSVA,WASWLES,QQYHRLPLS,not detected,0/3,1/9
KSSQSVLSESRNKASVA,WASHRES,QQYHRLPLS,0.90,3/3,0/9
KSSQSMLYEERNKNSVA,WASTRES,QQYHRLPLS,0.45,3/3,1/9

For reference, 9 entries of the list once more:

CDR-L1,CDR-L2,CDR-L3,mean log10 Kd (nM),replicates with signal,control signals
KSSQSVLYDSRAKNSVA,WASTQES,QQYHRLPLS,3.99,3/3,1/9
KSSQSVLYEKRNKNSGA,WGSTRES,QQYHRLPLS,not detected,0/3,2/9
KSSQSVTYESRNANSVA,WASTRES,QQYHRWPLS,1.29,3/3,4/9
KSSQSVLYESRNENSVA,WASTRFS,QQYHHLPLS,0.54,3/3,1/9
KSSQSVLYEYRNKNSVA,WASTPES,EQYHRLPLS,not detected,0/3,0/9
RSSGSVLYESRNKNSVA,WASTRES,HQYHRLPLS,2.66,3/3,3/9
KCHQSVLYESRCKNSVA,WASTRES,QQYHRLPLS,0.99,3/3,3/9
KSSNSVLYSSRNKNSVA,WASTRES,QQYKRLPLS,2.44,2/3,1/9
KSSQSVLYESRNINSVA,WANTRES,QQYHRLILS,not detected,0/3,2/9